Measured values: patent US20240131032A1, “AN ACTIVITY-GUIDED MAP OF ELECTROPHILE-CYSTEINE INTERACTIONS IN PRIMARY HUMAN IMMUNE CELLS” (The Scripps Research Institute, priority 2019, published 2024)

Chains of the proteins cited; added tags and fusions are not shown.
UniProt Q13489, whole entry: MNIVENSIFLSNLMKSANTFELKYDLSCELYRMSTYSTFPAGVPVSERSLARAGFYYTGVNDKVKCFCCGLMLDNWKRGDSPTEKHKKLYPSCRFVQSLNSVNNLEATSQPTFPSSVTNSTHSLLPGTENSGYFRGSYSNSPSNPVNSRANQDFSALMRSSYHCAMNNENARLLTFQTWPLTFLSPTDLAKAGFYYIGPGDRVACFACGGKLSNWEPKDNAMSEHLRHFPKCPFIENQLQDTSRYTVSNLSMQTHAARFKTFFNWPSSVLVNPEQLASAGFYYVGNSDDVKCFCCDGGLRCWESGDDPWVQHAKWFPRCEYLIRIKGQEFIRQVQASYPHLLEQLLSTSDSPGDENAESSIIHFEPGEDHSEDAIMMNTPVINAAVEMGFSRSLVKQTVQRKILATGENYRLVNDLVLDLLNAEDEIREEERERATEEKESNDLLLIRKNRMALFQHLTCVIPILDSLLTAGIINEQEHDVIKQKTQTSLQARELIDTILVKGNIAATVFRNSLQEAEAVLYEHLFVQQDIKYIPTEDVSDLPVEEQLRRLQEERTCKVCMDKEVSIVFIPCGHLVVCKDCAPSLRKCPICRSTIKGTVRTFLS
UniProt Q13490, whole entry: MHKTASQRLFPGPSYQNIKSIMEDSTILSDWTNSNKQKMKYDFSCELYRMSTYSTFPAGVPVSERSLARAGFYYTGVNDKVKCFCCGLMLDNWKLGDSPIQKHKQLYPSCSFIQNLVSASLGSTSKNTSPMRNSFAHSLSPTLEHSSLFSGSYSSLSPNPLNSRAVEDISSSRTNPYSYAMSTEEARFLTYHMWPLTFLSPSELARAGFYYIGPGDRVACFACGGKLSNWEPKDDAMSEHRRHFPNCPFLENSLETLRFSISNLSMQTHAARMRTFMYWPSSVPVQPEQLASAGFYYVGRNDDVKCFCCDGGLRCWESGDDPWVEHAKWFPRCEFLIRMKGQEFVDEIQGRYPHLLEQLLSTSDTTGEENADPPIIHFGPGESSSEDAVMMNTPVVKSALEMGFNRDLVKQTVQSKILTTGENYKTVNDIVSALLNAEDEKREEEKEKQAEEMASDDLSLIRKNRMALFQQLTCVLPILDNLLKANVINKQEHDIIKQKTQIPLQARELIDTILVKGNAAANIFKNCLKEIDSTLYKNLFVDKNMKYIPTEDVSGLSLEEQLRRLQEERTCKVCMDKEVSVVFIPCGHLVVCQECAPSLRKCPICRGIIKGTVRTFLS

Assays:
BIRC3 = molecular target: T1, BIRC3 (Homo sapiens, UniProt Q13489); assay: Western blot of BIRC3 content in human T cells; format: cell-based; conditions: EV-3 10 μM, DMF 50 μM, BPK-21 20 μM, BPK-25 10 μM, AT406 1 μM; 24 h
T1 construct: endogenous in cells; host or cells: primary human T cells

BIRC2 = BIRC2 (Homo sapiens, UniProt Q13490); assay: Western blot of BIRC2 content in human T cells; conditions: EV-3 10 μM, DMF 50 μM, BPK-21 20 μM, BPK-25 10 μM, AT406 1 μM; 24 h

Structure (SMILES)	BIRC3 content (BIRC3)	BIRC2 content (BIRC2)
CN[C@@H](C)C(=O)N[C@H]1CN(C(=O)CC(C)C)CC[C@H]2CC[C@@H](C(=O)NC(c3ccccc3)c3ccccc3)N2C1=O [AT406, reference compound]	but not BIRC3	loss of BIRC2
C=CC(=O)N(Cc1cccc(Cl)c1Cl)c1ccc(Oc2ccccc2)c(C(F)(F)F)c1 [BPK-21]	but not	but not
C=CC(=O)N(Cc1cccc(Cl)n1)c1ccc(C(=O)Nc2ccccc2)nc1 [BPK-25]	but not	but not
COC(=O)/C=C/C(=O)OC [DMF, reference compound]	but not	but not
O=C(CCl)N1CCN(S(=O)(=O)c2ccc(-c3ccncc3)cc2)CC1 [EV-3]	reductions	reductions
